Data reported in patent US20130017199A1, “SIMULTANEOUS INHIBITION OF PD-L1/PD-L2” (AMPLIMMUNE ,Inc. a corporation, priority 2009, published 2013).

Molecular target: T1, mouse PD-1-Ig (extracellular domain of mouse PD-1 linked to the Fc portion of mouse IgG2a) (mouse, UniProt Q02242 25-169)
T1 construct: also called mPD-1; not shown: Fc portion of mouse IgG2a
T1 sequence: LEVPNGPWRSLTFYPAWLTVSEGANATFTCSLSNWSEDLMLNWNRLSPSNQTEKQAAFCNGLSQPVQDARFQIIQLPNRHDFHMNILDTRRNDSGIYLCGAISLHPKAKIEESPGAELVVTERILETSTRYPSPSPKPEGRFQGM
Assay: capture ELISA; PD-1-Ig coated on plate, COS supernatant, anti-human IgG-HRP

B1: mouse B7-DC-Ig D111S (Fc fusion)
chain: LFTVTAPKEVYTVDVGSSVSLECDFDRRECTELEGIRASLQKVENDTSLQSERATLLEEQLPLGKALFHIPSVQVRDSGQYRCLVICGAAWSYKYLTVKVKASYMRIDTRILEVPGTGEVQLTCQARGYPLAEVSWQNVSVPANTSHIRTPEGLYQVTSVLRLKPQPSRNFSCMFWNAHMKELTSAIIDPLSRMEPKVPRTW
notes: Variant of m1; construct as in its note; also called mB7-DC variant; not shown: CH2-CH3 portion of human IgG1
How did the “PD-1 binding ELISA (%)” value turn out when B1 was run?
Its value is 0.3%.
